Consider three compounds from publication PMC3529200 (Bioorganic & medicinal chemistry letters, 2010).

By UniProt entry, the sequences of proteins in these tests, tags left out. Where a name states a change or a piece, a line headed by the entry shows the natural chain unless it says otherwise.
UniProt P34914: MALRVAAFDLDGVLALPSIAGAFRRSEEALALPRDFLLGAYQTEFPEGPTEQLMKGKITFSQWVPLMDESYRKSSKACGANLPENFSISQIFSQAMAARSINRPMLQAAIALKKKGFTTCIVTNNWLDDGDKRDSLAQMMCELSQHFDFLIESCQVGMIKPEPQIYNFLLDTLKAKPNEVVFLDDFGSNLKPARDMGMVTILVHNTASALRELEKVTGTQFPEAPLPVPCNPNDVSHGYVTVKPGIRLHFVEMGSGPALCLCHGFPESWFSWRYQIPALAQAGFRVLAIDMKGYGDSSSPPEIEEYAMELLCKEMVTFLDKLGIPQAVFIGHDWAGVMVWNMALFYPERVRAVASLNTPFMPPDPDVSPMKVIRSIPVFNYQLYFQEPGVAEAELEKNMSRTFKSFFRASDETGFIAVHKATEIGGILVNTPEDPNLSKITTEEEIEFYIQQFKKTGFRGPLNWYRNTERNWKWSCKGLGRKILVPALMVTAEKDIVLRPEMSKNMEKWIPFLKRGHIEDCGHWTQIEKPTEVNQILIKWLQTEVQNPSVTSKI

Experiment [1] concerns sEH. The note with it: read-out: sEH IC50; cited from earlier work.
Experiment [2] concerns the target T1, sEH (Mus musculus, UniProt P34914). The note with it: DIO mice, 100 mg/kg twice a day, up to 7 hours post administration.
For experiment [3], the target named is T1, sEH. Briefly: in vivo. Conditions: po, read-out: inhibition of blood sEH activity.
For experiment [4], the system named is sEH. Conditions: humans, once a day and twice a day dosing; cited from earlier work.

In the case of adamantyl ureido dodecanoic acid [AUDA], in the experiment with sEH [1], the IC50 – broadly, the point on the concentration scale where inhibition reaches its midpoint – is about 3 nM.
As to dicyclohexyl urea [DCU], the IC50 in the experiment with sEH [1] is about 52 nM.
Turning to `CC(=O)N1CCC(NC(=O)NC23CC4CC(CC(C4)C2)C3)CC1` [Compound 14a, 1-(1-Acetyl-piperidin-4-yl)-3-adamantan-1-yl-urea], the “whole blood sEH activity” value on sEH [2] is reported as “undetectable”. Moreover, the inhibition (in general, the change of the read-out against control, counted positive when it falls) at 100 mg/kg at sEH [3] was at least 90%. The “inhibition of blood sEH” value in the experiment with sEH [4] is reported as “greater than 90%”.
